The text below walks through data of patent US20080032959A1, “Estrogen Receptor Modulators” (priority 2004, published 2008).

In this assay the test system is PR immunoreactive cells in the hippocampus. Description: Murine brain PR ICC assay, hippocampus (PR regulated exclusively by ERα). The assay is classed as in vivo, mouse. To be noted: 0.2 mg/kg, 3 days; wild type and βERKO mice. How it is done: FIG. 1: Progesterone receptor (PR) protein in the dorsal raphe nucleus of wild type and estrogen receptor beta knockout (βERKO) mice following treatment with 17β-estradiol (E2, 0.2 mg/kg), Δ5-androstene-3β, 17β-diol (A, 5 or 10 mg/kg) or vehicle (sesame oil). Animals (n=5/group) were treated for 3 days and brains and uteri were collected 24 hours after the last treatment and processed for immunohistochemistry. While both ERα and ERβ are expressed in the dorsal raphe nucleus, ERβ is more abundant and induction of PR by E2 in this brain region is primarily regulated by ERβ.
Female mice (12-16 wks of age) are ovariectomized by the vendor (C57BL/6s from Charles River) and shipped one week later. Animals are fed a soy-free rodent chow upon arrival at the Merck animal facility, where they are given an additional week to adjust to the new environment. […]
Free floating 40 μm sections are washed in cold 0.1 M phosphate buffered saline (PBS), pH 7.4, to thoroughly remove cryoprotectant. […] Three antibodies have been used, both of which recognize the two PR isoforms: 1) rabbit polyclonal [DAKO, 1:2500]; 2) mouse monoclonal [Affinity Bioreagents, 1:700]; 3) rabbit monoclonal [Lab Vision, SP2 clone “ready to use” diluted to 1:400]; we are currently using the SP2. […]

Each structure is given as a SMILES string.

`C[C@]12CC[C@@H]3c4ccc(O)cc4CC[C@H]3[C@@H]1CC[C@@H]2O` [E2, 17β-estradiol, reference compound]: the “PR immunoreactive cells in the hippocampus” value was “robust expression”.
